For this test, the target named is T1, Adenosine deaminase (Homo sapiens, UniProt P00813).
T1 sequence (P00813 whole entry): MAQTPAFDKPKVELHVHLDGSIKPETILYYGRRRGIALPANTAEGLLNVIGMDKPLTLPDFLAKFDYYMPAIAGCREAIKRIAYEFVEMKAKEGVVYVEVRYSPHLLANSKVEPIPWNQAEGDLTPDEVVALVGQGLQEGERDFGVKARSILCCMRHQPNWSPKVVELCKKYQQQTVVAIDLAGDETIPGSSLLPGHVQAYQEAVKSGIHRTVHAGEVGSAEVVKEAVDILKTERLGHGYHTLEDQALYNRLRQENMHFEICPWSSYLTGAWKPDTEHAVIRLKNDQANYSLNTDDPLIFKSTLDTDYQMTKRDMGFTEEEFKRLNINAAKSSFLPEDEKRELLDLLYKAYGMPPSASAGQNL
The test can be described thus: Inhibition of adenosine deaminase assessed as conversion of adenosine to inosine.

The IC50 is the concentration needed to halve the response being measured. For `C[C@@]1(O)[C@H](O)[C@@H](CO)O[C@H]1n1cnc2c(N)nc(-n3ccnn3)nc21`, the IC50 was 3.7 µM.

The record behind these values is ChEMBL document CHEMBL1909609, “Synthesis of purine modified 2'-C-methyl nucleosides as potential anti-HCV agents” (Bioorg Med Chem Lett, 2011).
